The numbers were not newly measured in paper PMC9906638, “AlphaFold accelerates artificial intelligence powered drug discovery: efficient discovery of a novel CDK20 small molecule inhibitor” (Chemical Science, 2023), which cites them from elsewhere.

By UniProt entry, the sequences of proteins in these tests, tags left out. Where a name states a change or a piece, a line headed by the entry shows the natural chain unless it says otherwise.
UniProt Q8IZL9: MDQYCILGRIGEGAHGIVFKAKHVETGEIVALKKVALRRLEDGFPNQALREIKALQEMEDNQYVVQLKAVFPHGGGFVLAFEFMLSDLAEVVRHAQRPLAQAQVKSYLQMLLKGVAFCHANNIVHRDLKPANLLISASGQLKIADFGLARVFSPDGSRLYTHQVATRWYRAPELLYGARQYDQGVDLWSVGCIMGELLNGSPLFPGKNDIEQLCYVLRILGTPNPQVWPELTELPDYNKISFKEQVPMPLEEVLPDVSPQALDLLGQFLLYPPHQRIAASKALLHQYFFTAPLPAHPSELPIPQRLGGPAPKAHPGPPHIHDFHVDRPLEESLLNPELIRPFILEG

For the series, the target named is T1, CDK20/CycT1 (Homo sapiens, UniProt Q8IZL9).
T1 construct: purchased Reaction Biology Corp. (33PanQinase Activity Assay service)
Details: method as in doi:10.1158/1538-7445.AM2016-2821. Particulars: poster of Mueller et al.; cited from earlier work.

SMILES strings stand for the structures. pIC50: −log10 of the molar value.

The pIC50 is the negative decadic logarithm of the IC50, by convention in mol/L. `CN1CC[C@H](c2c(O)cc(O)c3c(=O)cc(-c4ccccc4Cl)oc23)[C@H](O)C1` [Flavopiridol]: the pIC50 is 5.59.
